Tests used:
[1] = molecular target: T1, human plasma clots (Homo sapiens, UniProt P00488); experiment: Incorporation into human plasma clots (in vitro plasma clot assay); type: biochemical
T1 construct: Factor XIII is transformed into its active form Factor XIIIa by thrombin in the presence of calcium ions; from tissue; host or cells: human plasma, clotted in vitro with thrombin and calcium chloride
T1 sequence (P00488 39-732): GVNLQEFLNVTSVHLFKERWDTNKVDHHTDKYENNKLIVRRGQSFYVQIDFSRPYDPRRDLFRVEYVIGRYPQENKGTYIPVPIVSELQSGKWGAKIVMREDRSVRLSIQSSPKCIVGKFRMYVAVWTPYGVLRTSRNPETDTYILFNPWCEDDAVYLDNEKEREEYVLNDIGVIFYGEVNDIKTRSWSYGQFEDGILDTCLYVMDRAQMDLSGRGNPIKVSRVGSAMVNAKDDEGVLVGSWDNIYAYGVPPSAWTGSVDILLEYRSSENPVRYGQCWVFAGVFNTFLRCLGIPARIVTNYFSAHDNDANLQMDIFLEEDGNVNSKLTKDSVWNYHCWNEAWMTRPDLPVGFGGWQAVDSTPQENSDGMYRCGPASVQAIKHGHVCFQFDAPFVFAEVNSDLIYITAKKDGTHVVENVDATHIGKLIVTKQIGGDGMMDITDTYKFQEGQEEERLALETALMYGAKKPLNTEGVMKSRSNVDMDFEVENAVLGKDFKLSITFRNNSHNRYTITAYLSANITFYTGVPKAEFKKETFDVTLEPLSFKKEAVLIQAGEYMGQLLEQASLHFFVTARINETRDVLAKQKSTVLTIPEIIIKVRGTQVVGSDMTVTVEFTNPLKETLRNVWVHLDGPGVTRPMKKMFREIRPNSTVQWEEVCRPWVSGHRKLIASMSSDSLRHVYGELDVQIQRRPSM
Procedure: Incorporation of radiolabelled substrates into fibrin was investigated by induction of an in vitro human plasma clot in the following manner. To a siliconised 5 ml glass vial was added, (a) 800 μl of Tris(hydroxymethyl)aminomethane buffered saline pH 7.5 containing calcium chloride (50 mM Tris, 150 mM sodium chloride, 4 mM calcium chloride.), (b) 40 μl of physiological salt solution containing 100 units of thrombin per ml, (c) 400 μl of human plasma containing the radiolabelled substrate at a concentration of typically 10 kBq/ml. To aid induction of clot a roughened glass rod was added to the reaction vial. Control vials were prepared similarly but with the omission of thrombin and calcium chloride.
The proportion of total radioactivity was calculated by counting in suitable detection apparatus.
The fraction of radioactivity retained on the filter, after subtraction of the non-specific binding determined from the control, is a measure of incorporation into the filtered clots.

[2] = molecular target: T2, Factor XIIIa (Homo sapiens, UniProt P00488); experiment: Factor XIIIa dependency of incorporation (dimethylcasein uptake, normal vs Factor XIII deficient plasma); type: biochemical; details: 1 KBq/ml, 60 minutes; uptake in normal plasma minus Factor XIII deficient plasma
T2 construct: Factor XIII is transformed into its active form Factor XIIIa by thrombin in the presence of calcium ions; from tissue; host or cells: human plasma
T2 sequence (P00488 39-732 limits assumed): T1 sequence (P00488 39-732)
Procedure: The assay was changed by replacing the mercaptoethanol with aprotinin at a final concentration of 2 μg/ml, and dimethylcasein (DMC) was used instead of casein.

1-(4-(N-(5-aminopentyl)-amidosulphonyl)benzyl)-1,4,8,11-tetraazacyclotetradecane [Compound 20]
% specific uptake* ([1]; % retained with thrombin − % retained no thrombin): 3.4% | % retained in plasma clot assay (with thrombin) ([1]; human plasma with thrombin and calcium chloride, 60 minutes, ca. 20° C.): 4% | % specific DMC casein uptake [2]: 8%

Source: US6897209B2, “Labelled factor XIIIa substrates” (GE Healthcare Limited, priority 1997, dated 2005)
